Experimental data as given in US7183436B2, “Substituted 4-aminocyclohexanols” (dated 2007).

System: NMRI mice
Experiment: Analgesia test by the tail-flick test on mice
Settings: for % MPE: intravenous dosage 1 mg/kg

SMILES	% MPE	ED50 intravenous (intravenous, peak of action 20 minutes after administration, regression analysis)
CN(C)C1(c2ccccc2)CCC(O)(c2cc3ccccc3n2C)CC1 (stereo not drawn)	100 (1) % MPE	0.19 mg/kg
CN(C)C1(c2ccccc2)CCC(O)(c2csc3ccccc23)CC1 (stereo not drawn)	100 (1) % MPE	–
